Test results as given in patent US20220184032A1, “INDOLINE DERIVATIVES FOR TREATMENT AND/OR PREVENTION OF FIBROSIS DISEASES” (Taipei Medical University, priority 2015, published 2022).

Tested on: CHO
Settings: reference compound, second section (CHO + S9, HCA), 3.0E−07 M

CO[C@@]12[C@H](COC(N)=O)C3=C(C(=O)C(C)=C(N)C3=O)N1C[C@@H]1N[C@@H]12 [Mitomycin C, reference compound]
Test Result: + (p < 0.05 by t-test and % of micronucleated cells at least 3-fold higher than background levels.)
